The structures appear in SMILES notation. This is a selection; strong and weak results do not stand in their true shares. The source made the active and inactive calls.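 The calls were made as follows: active = inhibition above the mean inhibition of all tested compounds plus 3 SD (cut at about 28% in these data); inactive = the rest.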

The nature of the assay: Jurkat cell viability reduction – Jurkat E6.1, 60K MLSMR library, cytotoxicity control, primary screen (AID 463). The settings on record: Jurkat E6.1 viability, ATP luminescence, 48 h; at 4 µM; stronger effect = higher value.
In the case of `Cc1c2non([O-])c-2c(C)[n+](=O)[n+]1[O-]`, the inhibition was inactive: 7.9%.

As to `CCc1nc2c(n1)c1c(non1O)c1c2no[n+]1[O-]`, the inhibition is active: 66.8%.

Turning to `O=C(OC1CN2CCC1CC2)c1cccc(Cl)c1` (configuration not stated), the inhibition was inactive: 7.8%.

For `c1nnnn1CCn1cnnn1`, the inhibition was inactive: -5.9%.

With `O=P(Nc1nccs1)(c1ccccc1)c1ccccc1`, the inhibition is inactive: 7.1%.

With `O=P1(Nc2nc3ccc(Cl)cc3s2)COc2ccccc2O1` (configuration not stated), the inhibition was inactive: -1.9%.

Take `CCOP1(=S)c2c(C)nn(CCC#N)c2N=C(c2ccccc2F)N1C` (configuration not stated): the inhibition is inactive: -2.5%.

In the case of `O=P(Nc1nccs1)(c1ccccc1)c1nc2ccccc2s1` (configuration not stated), the inhibition is inactive: 1.8%.

`CCOP1(=S)c2c(C)nn(CCC#N)c2N=C(c2ccc(F)cc2)N1C` (configuration not stated): the inhibition was inactive: -0.7%.

`Clc1n[nH]nc1-c1nn[nH][15n]1`: the inhibition is inactive: -5.7%.

Consider `O=P1(Nc2ccccn2)COc2ccccc2OC1`, for which the inhibition was inactive: -9.8%.

Turning to `Cc1nn(-c2ccccc2)c2c1P(=O)(N1CCOCC1)N(C)C(c1ccccc1)=N2` (configuration not stated), the inhibition was inactive: -9.8%.

Turning to `O=P1(Nc2ccc(Br)cn2)COc2ccccc2OC1`, the inhibition was inactive: -0.7%.

In the case of `O=P1(Nc2ncccn2)COc2ccccc2OC1`, the inhibition is inactive: -5.4%.

Take `O=C(COc1ccccc1)OC1CN2CCC1CC2` (configuration not stated): the inhibition is inactive: 2.1%.

On to `COP1(=S)c2c(C)nn(CCC#N)c2N=C(c2ccc(F)cc2)N1C` (configuration not stated), for which the inhibition is inactive: 6.5%.

For `O=C(OC1CN2CCC1CC2)C12CC3CC(CC(C3)C1)C2` (configuration not stated), the inhibition is inactive: 3%.

For orientation: inhibition means the drop in the measured response relative to a control, in per cent.

The values are drawn from PubChem BioAssay AID463 (The Scripps Research Institute Molecular Screening Center, 2006).
